Conditions: pampa; pH 5.0; 30.0 min; 50.0 µM

Papp: 53.9 ×10⁻⁶ cm/s
Structure (SMILES): CCN(CC)CCNC(=O)c1c(C)[nH]c(/C=C2\C(=O)Nc3ccc(F)cc32)c1C
